Literature values, collected in Sander's compilation of Henry's law constants.

Test: Henry solubility constant Hcp at 298.15 K (mol/(m3 Pa))
Conditions: cited value
[1] = reference: Burkholder et al. (2015)
[2] = reference: Burkholder et al. (2019)
[3] = reference: Sander et al. (2006)
[4] = reference: Sander et al. (2011)

Henry solubility constant Hcp (reference: Pierotti et al. (1959))	SMILES	Henry solubility constant Hcp [1]	Henry solubility constant Hcp [2]	Henry solubility constant Hcp [3]	Henry solubility constant Hcp [4]	Henry solubility constant Hcp (reference: Brockbank (2013))	Henry solubility constant Hcp (reference: Goldstein (1982))
	CCC(C)O[N+](=O)[O-] (configuration not stated) [2-butyl nitrate]	0.0064	0.0064	0.0064	0.0064		
	CCl [chloromethane]	0.0011	0.001	0.0013	0.0013	0.001	0.00029
0.0016	CCCCOCCCC [dibutyl ether]					0.0021	
